Ki data for one molecule are collected here from ChEMBL document CHEMBL1133708, “A new class of conformationally rigid analogues of 4-amino-5-halopentanoic acids, potent inactivators of gamma-aminobutyric acid aminotransferase” (J Med Chem, 2000).

Chains of the proteins cited; added tags and fusions are not shown. Lines headed by an entry give the natural chain unless they say otherwise; changes in a name come on top.
UniProt P80147: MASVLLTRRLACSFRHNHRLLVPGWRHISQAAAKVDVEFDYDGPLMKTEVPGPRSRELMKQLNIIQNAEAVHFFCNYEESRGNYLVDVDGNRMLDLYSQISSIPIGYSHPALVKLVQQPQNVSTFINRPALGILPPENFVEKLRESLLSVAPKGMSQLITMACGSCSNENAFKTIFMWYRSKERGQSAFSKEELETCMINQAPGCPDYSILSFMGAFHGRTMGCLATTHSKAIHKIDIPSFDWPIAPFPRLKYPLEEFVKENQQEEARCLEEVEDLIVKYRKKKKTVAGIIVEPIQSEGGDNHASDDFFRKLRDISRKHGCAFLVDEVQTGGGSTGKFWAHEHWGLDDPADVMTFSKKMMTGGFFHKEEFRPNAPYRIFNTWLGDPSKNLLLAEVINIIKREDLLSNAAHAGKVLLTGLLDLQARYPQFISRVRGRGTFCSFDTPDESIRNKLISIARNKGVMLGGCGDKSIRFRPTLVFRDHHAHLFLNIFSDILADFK

The structures appear in SMILES notation.

This assay has as its target 4-aminobutyrate aminotransferase, mitochondrial (Sus scrofa, UniProt P80147). Kind of assay: Compound was evaluated for the competitive inhibition of Gamma-amino-N-butyrate transaminase. A digest of the protocol:
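Pig brain GABA aminotransferase (0.15 mg/mL stock) assayed at 25 °C in 120 mM potassium pyrophosphate, pH 8.5, with excess succinic semialdehyde dehydrogenase, 5.3 mM α-ketoglutarate and 1 mM NADP+. GABA ranged 2.7–6.0 mM, with two inhibitor concentrations per GABA level. NADPH was read at 340 nm and % inhibition taken versus an untreated control. Ki was fitted to %I = 100[I]/{[I] + Ki(1 + [GABA]/Km)}.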

On to `N[C@H]1C[C@@H](C(=O)O)CC1(F)F`, for which the Ki – broadly, the dissociation constant of the complex between target and ligand, obtained from inhibition or displacement – was 190 µM.
